What all share (assay type): biochemical
The target in one assay is Rat FAAH (Rattus norvegicus (Rat), UniProt P97612). Kind of assay: In vitro rat FAAH radiometric assay. The following applies: rat brain homogenate; means of ≧3 experiments in duplicate. The protocol:
In Vitro Rat FAAH Radiometric Assay
Rat FAAH was prepared from male Sprague Dawley rat brains, homogenized in a potter in 20 mM of Tris HCl pH 7.4, 0.32 M sucrose.
After 10 minutes of pre-incubation with test compounds, the reaction was started by adding of 50 μL of substrate and incubating for 30 min at 37° C. The substrate was prepared in assay buffer in order to achieve the final concentration of 1 μM arachidonoyl ethanolamide (Cayman Chemical N. 90050) and 0.6 nM anandamide [ethanolamine-1-^3H](American Radiolabeled Chemicals Inc., ART. 0626, conc. 1 mCi/mL, S.A. 60 Ci/mmol). The reaction was stopped by adding cold 1:1 CHCl3/MeOH. After 10 minutes of centrifugation (845×g at 4° C.) 600 μL of aqueous phase were transferred into scintillation vials previously filled with 3 mL of scintillation fluid (Ultima Gold™, Perkin Elmer Inc., Cat. 6013329). Radioactivity was measured by liquid scintillation counting (MicroBeta2 LumiJET Perkin Elmer Inc.).
(§1) The median inhibitory concentrations (IC50) were determined by non-linear regression analysis of the Log [concentration]/response curves generated with mean replicate values using a four parameter Hill equation curve fitting with GraphPad Prism 5 (GraphPad Software Inc., CA-USA).

Amino acid sequences for entries named in this document (tags omitted). Residues count along the entry.
UniProt P97612, whole entry: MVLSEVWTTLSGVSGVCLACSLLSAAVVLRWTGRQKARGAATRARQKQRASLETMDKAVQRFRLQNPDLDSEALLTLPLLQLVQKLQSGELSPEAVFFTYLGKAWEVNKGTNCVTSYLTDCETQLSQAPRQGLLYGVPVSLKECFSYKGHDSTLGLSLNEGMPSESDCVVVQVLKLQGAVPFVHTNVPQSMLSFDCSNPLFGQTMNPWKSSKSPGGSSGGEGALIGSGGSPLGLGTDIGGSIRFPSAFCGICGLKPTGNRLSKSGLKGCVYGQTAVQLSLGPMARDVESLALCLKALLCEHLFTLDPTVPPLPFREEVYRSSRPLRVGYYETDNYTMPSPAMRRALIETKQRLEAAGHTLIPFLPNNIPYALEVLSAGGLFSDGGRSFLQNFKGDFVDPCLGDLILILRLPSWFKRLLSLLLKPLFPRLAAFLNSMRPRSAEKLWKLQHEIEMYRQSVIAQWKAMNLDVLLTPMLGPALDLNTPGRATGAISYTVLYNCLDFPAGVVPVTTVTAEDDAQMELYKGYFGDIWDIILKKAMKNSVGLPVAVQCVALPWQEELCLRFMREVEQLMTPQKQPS
UniProt P35354, 18-604: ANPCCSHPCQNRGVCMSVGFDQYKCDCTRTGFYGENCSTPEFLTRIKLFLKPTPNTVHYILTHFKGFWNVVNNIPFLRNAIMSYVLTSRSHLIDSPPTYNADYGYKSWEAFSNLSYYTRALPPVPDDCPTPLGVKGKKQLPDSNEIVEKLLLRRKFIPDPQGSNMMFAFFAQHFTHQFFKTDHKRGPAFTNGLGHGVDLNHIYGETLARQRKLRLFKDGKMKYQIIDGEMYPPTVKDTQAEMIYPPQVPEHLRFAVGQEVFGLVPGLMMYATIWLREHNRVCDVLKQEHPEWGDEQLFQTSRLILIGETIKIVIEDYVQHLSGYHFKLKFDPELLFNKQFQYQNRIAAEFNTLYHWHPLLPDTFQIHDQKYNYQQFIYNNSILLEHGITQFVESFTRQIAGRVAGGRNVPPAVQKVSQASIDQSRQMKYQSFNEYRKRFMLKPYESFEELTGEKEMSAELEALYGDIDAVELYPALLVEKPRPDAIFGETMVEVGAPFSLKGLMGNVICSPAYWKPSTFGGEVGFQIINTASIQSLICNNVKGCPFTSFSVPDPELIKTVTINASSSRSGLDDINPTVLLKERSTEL
UniProt O00519, whole entry: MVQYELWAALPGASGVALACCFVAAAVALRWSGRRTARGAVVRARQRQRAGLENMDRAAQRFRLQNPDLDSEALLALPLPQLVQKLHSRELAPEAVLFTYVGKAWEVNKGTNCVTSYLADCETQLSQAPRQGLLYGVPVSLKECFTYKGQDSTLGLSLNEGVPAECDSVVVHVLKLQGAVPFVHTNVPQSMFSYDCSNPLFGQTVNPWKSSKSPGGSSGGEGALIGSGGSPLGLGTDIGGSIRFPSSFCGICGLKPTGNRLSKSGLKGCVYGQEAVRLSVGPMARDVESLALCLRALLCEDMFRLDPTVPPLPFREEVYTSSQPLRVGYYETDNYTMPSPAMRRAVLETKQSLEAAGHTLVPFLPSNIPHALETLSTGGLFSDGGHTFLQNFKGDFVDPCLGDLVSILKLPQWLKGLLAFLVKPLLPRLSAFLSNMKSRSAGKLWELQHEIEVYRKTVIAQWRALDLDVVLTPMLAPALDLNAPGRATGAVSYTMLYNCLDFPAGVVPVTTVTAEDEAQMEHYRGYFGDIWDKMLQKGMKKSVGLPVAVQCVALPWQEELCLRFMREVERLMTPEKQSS

A further assay addresses human recombinant COX-2 (Homo sapiens (Human), UniProt P35354). Kind of assay: In vitro COX assay (COX Inhibitor Screening Assay Kit), COX-2. The protocol: COX activity was measured using a commercial kit (COX Inhibitor Screening Assay Kit—Cayman Chemical N. 560131) which includes both ovine COX-1 and human recombinant COX-2 enzymes. Inhibitors were pre-incubated with either ovine COX-1 or human COX-2 in order to screen isozyme-specific inhibition. Differently than described in the kit protocol, the reaction was carried out in the presence of 5 μM arachidonic acid while for the blank sample (no activity) the two enzymes were inactivated for 40 minutes at 100° C. It was then measured the amount of PGF2α produced by reduction with SnCl2 of COX-derived PGH2, via enzyme immunoassay (EIA) using a PG-specific antibody and competing with a PG-acetylcholinesterase conjugate.
Absorbance was measured at 412 nm with a Tecan Infinite M200 plate reader and data were processed according to manufacturer's instructions.
as §1

The next assay addresses human FAAH-1 (Homo sapiens (Human), UniProt O00519). Put plainly: In vitro human FAAH fluorescent assay. The following applies: human FAAH-1 membrane preparation from HEK-293; means of ≧3 experiments. As for the experimental part:
In Vitro Human FAAH Fluorescent Assay
Human recombinant FAAH was obtained from a HEK-293 FAAH-1 overexpressing stable cell line. Cells were grown in DMEM medium containing 10% FBS, 1% pen/strep, 1% glutamine and 500 μg/mL G418. To obtain membrane preparation cells were scraped off with cold phosphate-buffered saline (PBS) and collected by centrifugation (500×g, 10 minutes, 4° C.); the cell pellet was re-suspended in 20 mM Tris-HCl pH 7.4, 0.32 M sucrose, disrupted by sonication (10 pulses, 5 times) and centrifuged (800×g, 15 minutes, 4° C.); the collected supernatant was centrifuged at 105,000×g for 1 h at 4° C. and the pellet was re-suspended in PBS.
The fluorescent assay to measure FAAH activity was performed in 96 wells black plates: 2.5 μg of human FAAH-1 membrane preparation were pre-incubated for 50 minutes at 37° C., in 180 μL of assay buffer (50 mM TrisHCl pH 7.4, 0.05% Fatty acid-free BSA) with 10 μL of inhibitor or 10 μL DMSO to measure FAAH total activity. The background (no activity) samples were prepared using 180 μL of assay buffer without human FAAH-1 and 10 μL of DMSO. […] The reaction was carried out for 30 minutes at 37° C. and fluorescence was measured with a Tecan Infinite M200 nanoquant plate reader (excitation wavelength 350 nm/emission wavelength 460 nm). […]

The mark [1] stands for this setting: 5 μM arachidonic acid, read-out: human COX-2 IC50.

Read-outs that look alike come from different tables or passages of the source.

Take `CCCCCCNC(=O)Oc1cccc(-c2ccc(C(C)C(=O)O)cc2F)c1` (single isomer, unassigned; (-)) [Example 19, (−)-2-[3-fluoro-4-[3-(hexylcarbamoyloxy)phenyl]phenyl]propanoic acid]: the IC50 against Rat FAAH stood at 9.9 nM; at human recombinant COX-2 (setting [1]), 54000 nM; against human FAAH-1, 8.6 nM.

On to `CCCCCCNC(=O)Oc1cccc(-c2ccc(C(C)C(=O)O)cc2F)c1` (single isomer, unassigned; (+)) [Example 20, (+)-2-[3-fluoro-4-[3-(hexylcarbamoyloxy)phenyl]phenyl]propanoic acid], for which the IC50 against Rat FAAH was determined as 9.4 nM; at human recombinant COX-2 (setting [1]) it was 10 nM.

As for `CCCCCCNC(=O)Oc1cccc(-c2ccc(C(C)C(=O)O)cc2F)c1` (stereo not drawn) [Example 12, 2-[3-fluoro-4-[3-(hexylcarbamoyloxy)phenyl]phenyl]propanoic acid], the IC50 on human recombinant COX-2 (Table 2, read-out: COX-2 IC50) turned out to be 430 nM.

In general, IC50 refers to the concentration that gives 50% inhibition.
